The record followed here is publication PMC6416464 (Drug Metabolism Letters, 2018).

Amino acid sequences for entries named in this document (tags omitted).
UniProt P05177, whole entry: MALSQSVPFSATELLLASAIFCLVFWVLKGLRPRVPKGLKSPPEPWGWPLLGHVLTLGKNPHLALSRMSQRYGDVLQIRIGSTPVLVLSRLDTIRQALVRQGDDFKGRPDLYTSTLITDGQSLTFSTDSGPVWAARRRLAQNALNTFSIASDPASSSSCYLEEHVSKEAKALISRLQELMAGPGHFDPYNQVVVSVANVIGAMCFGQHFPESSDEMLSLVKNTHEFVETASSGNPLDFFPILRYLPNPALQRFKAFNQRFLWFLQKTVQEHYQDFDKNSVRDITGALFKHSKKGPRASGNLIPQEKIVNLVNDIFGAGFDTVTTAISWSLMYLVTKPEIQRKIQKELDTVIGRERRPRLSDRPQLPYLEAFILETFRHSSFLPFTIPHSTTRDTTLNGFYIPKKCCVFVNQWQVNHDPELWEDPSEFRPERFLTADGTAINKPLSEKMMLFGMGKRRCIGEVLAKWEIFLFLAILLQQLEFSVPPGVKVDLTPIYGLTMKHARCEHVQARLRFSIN

The structures appear in SMILES notation.

This series concerns the target CYP1A2 (Homo sapiens, UniProt P05177). The series can be described thus: CYP inhibition in human liver microsomes, CYP1A2. The settings on record: inhibitor 10 µM, HLM, NI: No Inhibitin. For orientation: Liver microsomes are a subcellular fraction often used to study metabolism.

Take `CCCSc1ccc2nc(NC(=O)OC)[nH]c2c1` [Albendazole, albendazole, reference compound]: the “% Inhibition of Control Activity CYP1A2” value is listed as 35.54%.
